From ChEMBL document CHEMBL2385058, “Progress and developments in tau aggregation inhibitors for Alzheimer disease” (J Med Chem, 2013)

Amino acid sequences for entries named in this document (tags omitted).
UniProt P05067, whole entry: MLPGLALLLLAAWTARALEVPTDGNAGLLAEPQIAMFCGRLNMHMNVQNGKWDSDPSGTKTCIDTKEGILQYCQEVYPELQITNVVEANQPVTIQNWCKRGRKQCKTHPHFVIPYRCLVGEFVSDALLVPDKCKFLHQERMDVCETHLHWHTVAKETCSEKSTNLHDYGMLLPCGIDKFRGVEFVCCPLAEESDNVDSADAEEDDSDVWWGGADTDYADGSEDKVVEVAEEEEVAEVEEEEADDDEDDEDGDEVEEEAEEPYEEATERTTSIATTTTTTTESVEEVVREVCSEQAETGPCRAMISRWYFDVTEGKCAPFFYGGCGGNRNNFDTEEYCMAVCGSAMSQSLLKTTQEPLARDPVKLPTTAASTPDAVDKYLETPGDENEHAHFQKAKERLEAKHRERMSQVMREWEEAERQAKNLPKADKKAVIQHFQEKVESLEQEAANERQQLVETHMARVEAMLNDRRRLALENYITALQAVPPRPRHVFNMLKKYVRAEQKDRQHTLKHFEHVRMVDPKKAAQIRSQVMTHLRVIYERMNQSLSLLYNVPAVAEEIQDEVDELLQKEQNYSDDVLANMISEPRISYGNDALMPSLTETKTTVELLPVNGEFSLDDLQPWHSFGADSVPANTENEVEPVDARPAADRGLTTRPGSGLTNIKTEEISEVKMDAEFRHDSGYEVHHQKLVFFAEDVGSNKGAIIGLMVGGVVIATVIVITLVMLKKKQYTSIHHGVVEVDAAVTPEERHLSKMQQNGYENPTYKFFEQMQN

Target: Amyloid-beta precursor protein (Homo sapiens, UniProt P05067)
Assay: Binding affinity to amyloid beta (1 to 40) (unknown origin)

Ki: 890 nM
Structure (SMILES): Cc1ccc2c(c1)sc(-c1ccc(N(C)C)cc1)[n+]2C [THIOFLAVIN T]
